Assay results published in publication PMC5754411 (Cancer Chemotherapy and Pharmacology, 2017).
Values joined by “and” are separate entries in the source; they are usually repeats but may differ in a detail not shown here. Equal entries are not always repeated. Where two headings read alike, the source gives them in different places.

Description: Signed and dated written informed consent was obtained from each patient before participation in the study and before the performance of any procedures. After informed consent was obtained, eligible participants were given the choice to be admitted to the clinical research unit on day − 1 or on day 1. A summary of the study design can be found in Fig. 1. […] Subjects continued fasting until 2 h after the start of the IV infusion, at which time a non-standardised light meal was served. The radiolabelled dose contained approximately 100 nCi (3.7 kBq) radioactivity and was administered into one arm of the subject; the contralateral arm was used for pharmacokinetic sampling and clinical laboratory blood draws. The syringe for IV drug administration was connected to a Perfusor Space Infusion Pump (B. Braun), which was set to administer 7 mL in 15 min. Blood samples were taken pre-dose and at 1, 1.5, 2 (just before start of IV infusion), 2.125 (halfway through the IV infusion), 2.25 (just before end of infusion), 2.33, 2.66, 3, 4, 6, and 12 h. Sampling was done on each morning of days 2, 3, 4, 5, 7, 9, 11, 13, 15, and 22. Plasma was divided in two sets: one set was sent to Xceleron Inc. (Germantown, MD, USA) for the determination of plasma concentrations of the ^14C-microtracer by AMS, and the other set was stored at the Antoni van Leeuwenhoek Hospital until it received pharmacokinetic analysis at the Good Laboratory Practice–licensed laboratory of the pharmacy. Plasma was separated from blood by centrifugation (3,000 rpm, 15 min, 4 °C) and was stored frozen at ≤ − 70 °C in polypropylene tubes before and after analysis. […] Vital signs assessments, haematology assessment, and blood chemistry assessments were done frequently to make sure that the patients were still in sufficient condition to remain on treatment. […] The study was approved by the local independent ethics committee and was conducted in accordance with local regulations, the Declaration of Helsinki, and International Conference on Harmonisation Good Clinical Practice Guidelines.
Total ^14C-radioactivity concentrations in plasma samples were determined using AMS. Plasma samples were directly aliquoted into tubes containing copper oxide powder (CuO). The samples were graphitised and analysed by a Single Stage Accelerator Mass Spectrometer (SSAMS) 250 kV system (National Electrostatics Corp., Middleton, WI, USA). […] Samples were analysed by an Agilent 1200 HPLC system (Agilent Technologies, Palo Alto, CA, USA) equipped with a wavelength UV detector set to 254 nm. Separation was achieved using a Phenomenex Kinetex 2.6 µ biphenyl column (100 Å, 100 × 3.0 mm). Mobile phase A and B consisted of 20 mM ammonium acetate in water and 0.1% formic acid in acetonitrile–methanol (50:50, v/v), respectively. Column oven temperature was set at 40 °C, and run-time was 18 min. […] The fractions were graphitised and analysed by SSAMS. Each batch of experimental samples was run against freshly prepared calibration standards at seven concentrations in duplicates. Replicate quality control samples at three concentrations were stored and also analysed alongside study samples. Finally, F po was calculated as the ratio of the dose-normalised AUC of the oral dose to the IV dose.

[1] = 100 µg IV 14C-niraparib, plasma, n = 6

^14C-niraparib
CL (100 µg IV 14C-niraparib): 5.90 L·h
C max (100 µg IV 14C-niraparib, 15-min infusion, plasma, n = 6): 4.19 ng-equivalents/mL and 4.19 (45.0) ng-equivalents/mL
CL (100 µg IV 14C-niraparib, n = 6): 5.90 (64.1) L/h
V d (100 µg IV 14C-niraparib, n = 6): 194 (22.1) L
AUC0–inf [1]: 21.5 (49.3) ng-equivalents × h/mL
AUC0–last [1]: 16.4 (53.1) ng-equivalents × h/mL
t ½ [1]: 28.2 (43.9) h
Difference between AUC of 14C-niraparib and total 14C-radioactivity (100 µg IV 14C-niraparib, indicates extensive metabolism): more than tenfold
C max of 14C-niraparib dose lower than that of unlabelled niraparib dose (100 µg IV vs 300 mg oral): 303 fold
Time up to which 14C-radioactivity could be measured in plasma (after dosing, all six patients): up to 504 h
Hepatic extraction ratio (from CL, assuming hepatic blood flow approximately 80 L/h): very low
Last time point at which 14C-niraparib was detected in plasma by AMS (post-dose, 100 µg IV): ≤ 96 h
